This is an account of results in the Kinase Knowledgebase extract (Sharma et al. 2016).

The chains behind the UniProt entries cited, without tags or fusion partners. Where a name states a change or a piece, a line headed by the entry shows the natural chain unless it says otherwise.
UniProt P42336, whole entry, looked up: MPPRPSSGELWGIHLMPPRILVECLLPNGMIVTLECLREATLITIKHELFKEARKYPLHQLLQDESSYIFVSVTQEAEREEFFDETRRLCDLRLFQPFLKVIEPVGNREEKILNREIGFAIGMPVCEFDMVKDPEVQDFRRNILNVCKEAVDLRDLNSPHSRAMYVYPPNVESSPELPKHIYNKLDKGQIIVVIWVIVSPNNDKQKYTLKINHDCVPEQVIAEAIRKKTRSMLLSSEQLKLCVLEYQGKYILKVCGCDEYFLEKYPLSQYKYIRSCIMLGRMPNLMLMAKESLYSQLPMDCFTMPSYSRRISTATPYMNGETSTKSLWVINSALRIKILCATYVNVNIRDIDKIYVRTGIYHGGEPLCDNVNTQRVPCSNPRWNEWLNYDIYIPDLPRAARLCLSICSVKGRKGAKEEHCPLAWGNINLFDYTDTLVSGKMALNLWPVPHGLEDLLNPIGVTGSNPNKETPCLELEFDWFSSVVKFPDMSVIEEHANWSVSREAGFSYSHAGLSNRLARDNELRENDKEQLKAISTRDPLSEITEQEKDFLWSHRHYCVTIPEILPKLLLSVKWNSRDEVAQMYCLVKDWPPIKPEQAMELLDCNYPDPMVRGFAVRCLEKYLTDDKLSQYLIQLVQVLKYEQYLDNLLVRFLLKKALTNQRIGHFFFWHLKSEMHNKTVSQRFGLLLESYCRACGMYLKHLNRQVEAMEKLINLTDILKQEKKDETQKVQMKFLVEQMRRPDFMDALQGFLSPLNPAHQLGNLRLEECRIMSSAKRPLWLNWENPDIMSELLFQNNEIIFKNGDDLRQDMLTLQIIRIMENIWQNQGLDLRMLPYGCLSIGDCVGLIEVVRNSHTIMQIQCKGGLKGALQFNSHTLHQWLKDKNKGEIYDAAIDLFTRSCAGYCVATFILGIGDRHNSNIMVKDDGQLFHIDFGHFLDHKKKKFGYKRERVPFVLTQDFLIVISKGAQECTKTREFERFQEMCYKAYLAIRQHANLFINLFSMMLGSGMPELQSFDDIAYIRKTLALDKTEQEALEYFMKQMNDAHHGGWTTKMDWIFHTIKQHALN
UniProt O00329: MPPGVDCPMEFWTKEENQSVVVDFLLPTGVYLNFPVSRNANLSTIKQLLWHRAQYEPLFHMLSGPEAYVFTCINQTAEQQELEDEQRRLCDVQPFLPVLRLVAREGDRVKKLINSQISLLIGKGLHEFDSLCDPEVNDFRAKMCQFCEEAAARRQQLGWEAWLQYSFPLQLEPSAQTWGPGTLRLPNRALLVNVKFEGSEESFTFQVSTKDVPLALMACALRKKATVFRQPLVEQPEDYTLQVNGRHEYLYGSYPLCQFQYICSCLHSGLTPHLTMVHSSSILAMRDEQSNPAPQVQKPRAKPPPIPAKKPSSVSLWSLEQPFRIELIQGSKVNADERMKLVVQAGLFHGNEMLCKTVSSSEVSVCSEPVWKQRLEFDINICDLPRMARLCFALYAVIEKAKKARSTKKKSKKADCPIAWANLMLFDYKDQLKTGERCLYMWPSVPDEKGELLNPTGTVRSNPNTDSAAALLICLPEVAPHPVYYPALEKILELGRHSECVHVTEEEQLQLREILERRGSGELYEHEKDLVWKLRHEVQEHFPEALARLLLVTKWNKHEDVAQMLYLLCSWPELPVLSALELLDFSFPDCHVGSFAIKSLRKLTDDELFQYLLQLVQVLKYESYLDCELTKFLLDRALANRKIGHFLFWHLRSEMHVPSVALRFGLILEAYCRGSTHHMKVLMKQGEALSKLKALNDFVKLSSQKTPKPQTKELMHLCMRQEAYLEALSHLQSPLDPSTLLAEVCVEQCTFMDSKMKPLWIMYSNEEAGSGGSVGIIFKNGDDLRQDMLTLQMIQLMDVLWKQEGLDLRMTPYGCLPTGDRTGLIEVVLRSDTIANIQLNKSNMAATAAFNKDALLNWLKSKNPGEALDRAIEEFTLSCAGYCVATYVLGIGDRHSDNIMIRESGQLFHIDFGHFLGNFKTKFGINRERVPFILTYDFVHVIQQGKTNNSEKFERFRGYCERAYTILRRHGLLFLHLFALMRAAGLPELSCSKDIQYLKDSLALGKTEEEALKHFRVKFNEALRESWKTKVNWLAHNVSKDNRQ

Experiment [1] has as its target PIK3CA (human) (UniProt P42336). In words: Cell-Based Assay. As to conditions: t47d.
Experiment [2] shares this target. In words: Enzyme Assay.
The target of the next experiment is PIK3CD (Human) (UniProt O00329). In words: Enzyme Assay.

For orientation: IC50 means the concentration that inhibits the measured activity by half. Read a high IC50 as a need for much substance. For the compound `Nc1nc2cc(-c3ccc4ncc(C(=O)N[C@H]5CC[C@H](O)CC5)n4c3)ccc2o1`, the IC50 against PIK3CA (human) [1] is 100 to 1000 nM; at PIK3CA (human) [2], less than 100 nM; against PIK3CD (Human), less than 100 nM.
